Experimental data taken from US20200246352A1, “Vanadyl and vanadate for use in reducing stress-induced metabolic derangement” (CFM Pharma Holding B.V., priority 2017, published 2020).
Where two headings read alike, the source gives them in different places.

Test system: healthy male Wistar rats
Settings: high adrenaline dose (HA) 1 μg/kg/min
Method: In the first part of the study (Table 1, Table 3, series 1), thirteen (13) healthy male Wistar rats were anesthetized by intraperitoneal (ip.) injection of thiopental (Tiobarbital 0.5 g, Braun Medical SA) after 12 hours of fasting.

**Q.** `CNCC(O)c1ccc(O)c(O)c1` (stereo not drawn) [adrenaline] was tested. Which “Blood glucose levels, individual animals in duplicate” value (shortened to “Blood glucose levels”) (120 min) did it give?
**A.** The value was 16.5 mM/l.

**Q.** And the “Blood glucose levels” value (150 min)?
**A.** The value was 17.3 mM/l.

**Q.** And the “Blood glucose levels” value (180 min)?
**A.** Its value is 18.3 mM/l.
